{"sequences": {"note": "By UniProt entry, the sequences of proteins in these tests, tags left out.", "UniProt P31424, whole entry": "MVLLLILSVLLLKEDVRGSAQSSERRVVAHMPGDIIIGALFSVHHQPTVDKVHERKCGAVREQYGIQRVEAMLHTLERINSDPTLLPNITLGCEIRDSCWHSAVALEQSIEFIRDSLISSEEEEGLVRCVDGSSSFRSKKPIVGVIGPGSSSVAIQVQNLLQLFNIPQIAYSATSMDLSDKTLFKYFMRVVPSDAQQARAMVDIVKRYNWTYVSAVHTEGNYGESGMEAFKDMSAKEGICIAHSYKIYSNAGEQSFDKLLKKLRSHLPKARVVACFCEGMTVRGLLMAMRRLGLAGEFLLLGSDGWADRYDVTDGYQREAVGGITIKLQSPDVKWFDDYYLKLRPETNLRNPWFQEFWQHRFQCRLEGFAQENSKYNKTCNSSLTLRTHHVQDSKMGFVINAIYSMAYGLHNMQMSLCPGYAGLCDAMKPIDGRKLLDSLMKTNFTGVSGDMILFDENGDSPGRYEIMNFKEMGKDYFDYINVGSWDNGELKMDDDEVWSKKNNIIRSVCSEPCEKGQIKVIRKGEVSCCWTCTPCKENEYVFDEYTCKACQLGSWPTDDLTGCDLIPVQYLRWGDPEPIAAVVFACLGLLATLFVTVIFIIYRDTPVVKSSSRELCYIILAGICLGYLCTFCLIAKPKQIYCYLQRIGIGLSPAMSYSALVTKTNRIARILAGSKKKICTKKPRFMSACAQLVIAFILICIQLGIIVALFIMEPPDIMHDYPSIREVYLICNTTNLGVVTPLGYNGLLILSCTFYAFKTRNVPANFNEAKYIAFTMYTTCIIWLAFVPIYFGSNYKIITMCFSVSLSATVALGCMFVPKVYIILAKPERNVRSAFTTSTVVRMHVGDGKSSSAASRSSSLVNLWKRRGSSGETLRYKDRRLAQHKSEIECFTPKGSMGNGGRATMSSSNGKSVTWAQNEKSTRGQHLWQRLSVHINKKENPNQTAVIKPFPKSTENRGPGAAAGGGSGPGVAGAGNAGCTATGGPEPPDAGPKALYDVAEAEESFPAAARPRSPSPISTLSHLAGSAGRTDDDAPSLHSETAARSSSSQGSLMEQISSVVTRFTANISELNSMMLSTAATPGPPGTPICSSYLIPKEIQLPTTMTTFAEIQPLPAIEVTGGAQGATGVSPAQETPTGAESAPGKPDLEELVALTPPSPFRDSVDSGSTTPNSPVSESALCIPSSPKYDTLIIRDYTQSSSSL"}, "source": "ChEMBL document CHEMBL1140723", "about": "“Positive and negative modulation of group I metabotropic glutamate receptors” (J Med Chem, 2008)", "target": "Metabotropic glutamate receptor 5 (Rattus norvegicus, UniProt P31424)", "experiment": "Displacement of [3H]MPEP from rat mGluR5", "method_in_brief": "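Membranes were washed four times in 50 mM Tris-HCl pH 8.0 and resuspended in 50 mM Tris-HCl pH 7.5. 125–250 µg protein was incubated with 5 nM [3H]MPEP and test agent (up to 10 µM), up to 5% DMSO, 60 min at RT. Nonspecific binding: 10 µM MPEP. Filtered on glass fibre filters, rinsed with ice-cold buffer, then scintillation counted.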", "data": [{"compound": "[3H]C([3H])([3H])c1cccc(C#Cc2ccccc2)n1", "values": [{"measurement": "IC50", "result": 13, "unit": "nM"}, {"measurement": "Ki", "result": 12, "unit": "nM"}]}]}
